Measurements taken from patent publication US6784201B2, “Benzothiepines having activity as inhibitors of ileal bile acid transport and taurocholate uptake” (G.D. Searle & Company, priority 1994, dated 2004).
Where two headings read alike, the source gives them in different places.

Biological target: T1, human IBAT (Homo sapiens, UniProt Q12908)
T1 construct: expressed in transfected cells; host or cells: Baby hamster kidney (BHK) cells, clone H14
T1 sequence (Q12908 1-348): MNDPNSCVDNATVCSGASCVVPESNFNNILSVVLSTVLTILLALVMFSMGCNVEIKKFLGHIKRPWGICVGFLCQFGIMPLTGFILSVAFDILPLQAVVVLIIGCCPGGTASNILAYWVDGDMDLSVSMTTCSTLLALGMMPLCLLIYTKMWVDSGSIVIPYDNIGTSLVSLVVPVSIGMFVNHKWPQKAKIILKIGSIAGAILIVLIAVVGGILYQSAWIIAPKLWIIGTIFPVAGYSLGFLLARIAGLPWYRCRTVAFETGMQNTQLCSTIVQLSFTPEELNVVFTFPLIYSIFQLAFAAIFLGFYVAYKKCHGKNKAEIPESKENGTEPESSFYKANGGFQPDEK
Assay: In vitro assay of IBAT-mediated uptake of [14C]-taurocholate (TC) in H14 cells
Assay type: cell-based
Experimental: In Vitro Assay of Compounds that Inhibit IBAT-Mediated Uptake of [^14C]-Taurocholate (TC) in H14 Cells
Baby hamster kidney cells (BHK) transfected with the cDNA of human IBAT (H14 cells) are seeded at 60,000 cells/well in 96 well Top-Count tissue culture plates for assays run within in 24 hours of seeding, 30,000 cells/well for assays run within 48 hours, and 10,000 cells/well for assays run within 72 hours.
On the day of assay, the cell monolayer is gently washed once with 100 μl assay buffer (Dulbecco's Modified Eagle's medium with 4.5 g/L glucose+0.2% (w/v) fatty acid free bovine serum albumin-(FAF)BSA). To each well 50 μl of a two-fold concentrate of test compound in assay buffer is added along with 50 μl of 6 μM [^14C]-taurocholate in assay buffer (final concentration of 3 μM [^14C]-taurocholate). The cell culture plates are incubated 2 hours at 37° C. prior to gently washing each well twice with 100 μl 4° C. Dulbecco's phosphate-buffered saline (PBS) containing 0.2% (w/v) (FAF)BSA. The wells are then gently washed once with 100 μl 4° C. PBS without (FAF)BSA. To each 200 μl of liquid scintillation counting fluid is added, the plates are heat sealed and shaken for 30 minutes at room temperature prior to measuring the amount of radioactivity in each well on a Packard Top-Count instrument.

SMILES	IC50 (Human TC IC50)	IC50 (read-out: Human TC IC50)
CCCCC1(CCCC)CS(=O)(=O)c2ccc(N(C)C)cc2C(c2cccc(CC(=O)O)c2)C1O (centres unmarked) [Example 1102]	7 nM	–
CCCCC1(CC)CS(=O)(=O)c2ccc(NC(=O)OC(C)(C)C)cc2C(c2ccccc2)C1O (centres unmarked) [Example 119]	–	1300 nM
